{
  "sequences": {"note": "By UniProt entry, the sequences of proteins in these tests, tags left out.", "UniProt Q8NB16, whole entry": "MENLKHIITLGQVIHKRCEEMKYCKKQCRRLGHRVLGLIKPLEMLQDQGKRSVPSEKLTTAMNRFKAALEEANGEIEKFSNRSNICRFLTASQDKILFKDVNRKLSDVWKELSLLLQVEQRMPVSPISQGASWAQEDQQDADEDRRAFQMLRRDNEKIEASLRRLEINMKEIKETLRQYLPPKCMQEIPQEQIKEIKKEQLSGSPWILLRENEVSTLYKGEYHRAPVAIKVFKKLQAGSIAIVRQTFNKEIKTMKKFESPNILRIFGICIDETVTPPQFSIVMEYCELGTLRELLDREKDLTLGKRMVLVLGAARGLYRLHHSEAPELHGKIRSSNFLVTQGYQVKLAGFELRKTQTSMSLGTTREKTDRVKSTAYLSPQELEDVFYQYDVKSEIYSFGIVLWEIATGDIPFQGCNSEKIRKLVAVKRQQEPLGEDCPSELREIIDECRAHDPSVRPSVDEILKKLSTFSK"},
  "source": "patent US20250074891A1",
  "about": "(Anaxis Pharma Pty Ltd., priority 2021, published 2025)",
  "key": {"[1]": {"biological_target": "endogenous MLKL in U937 (Homo sapiens (Human), UniProt Q8NB16)", "experiment": "Degradation assay: degradation of endogenous MLKL in human cells (Western blot)", "details": "read-out: Degradation of endogenous MLKL in U937 (DC50 cell-based assay in μM), 24 h incubation"}, "[2]": {"biological_target": "MLKL (full length) (Homo sapiens (Human), UniProt Q8NB16)", "experiment": "KINOMEscan binding assay, MLKL (full length)", "details": "read-out: MLKL (KD), Table 36"}, "[3]": {"system": "U937 cells", "experiment": "Counter screen: cell viability without TSQ cocktail (off-target effect)", "details": "read-out: Off-target effect (IC50 cell-based assay), Table 38"}, "[4]": {"system": "U937 human histiocytic leukemia cell line", "experiment": "Cellular assay: inhibition of TSQ induced necroptosis (CellTitre-Glo)", "details": "read-out: Inhibition of TSQ-induced necroptosis (IC50 cell-based assay); U937 cells, TSQ cocktail, 48 hours, Table 38"}},
  "data": [
    {"smiles": "CCS(=O)(=O)Nc1ccc(-c2n[nH]c(Nc3ccc(C(=O)NCCC(=O)N[C@H](C(=O)N4C[C@H](O)C[C@H]4C(=O)NCc4ccc(-c5scnc5C)cc4)C(C)(C)C)cn3)c2C(N)=O)cc1O[C@@H](C)c1ccc(F)cc1", "values": [
      {"measurement": "DC50", "setting": "[1]", "result": "1 to 10", "unit": "µM"},
      {"measurement": "Kd", "setting": "[2]", "result": "< 0.01", "unit": "µM"},
      {"measurement": "IC50", "setting": "[3]", "result": "> 10", "unit": "µM"},
      {"measurement": "IC50", "setting": "[4]", "result": "1 to 10", "unit": "µM"}
    ]},
    {"smiles": "CCS(=O)(=O)Nc1ccc(-c2n[nH]c(Nc3ccnc(OCCNC(=O)COc4cccc5c4C(=O)N(C4CCC(=O)NC4=O)C5=O)c3)c2C(N)=O)cc1", "note": "(stereo not shown)", "values": [
      {"measurement": "Kd", "setting": "[2]", "result": "< 0.01", "unit": "µM"},
      {"measurement": "IC50", "setting": "[3]", "result": "> 10", "unit": "µM"},
      {"measurement": "IC50", "setting": "[4]", "result": "> 10", "unit": "µM"}
    ]}
  ]
}
